Measured melting point values of organic chemicals

Values as listed in the OPERA 2.9 repository of K. Mansouri.

Melting points are in °C. The databases behind each value are named after "via".

structure (SMILES) | mp (°C) | via
O=CNNc1nc(-c2ccc([N+](=O)[O-])o2)cs1 | 215.5 | PubChem
CC1CCC(C(C)C)C(OCC(O)CO)C1 (centres undefined) | -19.7 | eChemPortal
O=c1cc(-c2ccccc2)c2cc(Cl)c(O)cc2o1 | 261 | OCHEM
O=C(NC(C(=O)O)c1ccccc1)c1ccccc1 (centres undefined) | 199 | OCHEM
Nc1cc([N+](=O)[O-])c(F)cc1F | 99 | OCHEM
O=S(=O)(Cl)c1ccc(Cl)cc1C(F)(F)F | 46 | OCHEM
CSCCC(NC(=O)COc1ccccc1)C(=O)O (centres undefined) | 126 | OCHEM
O=C1N=C(O)CCC1N1C(=O)C2CCCCC2C1=O (centres undefined) | 181 | PubChem
Cn1cccc1C(=O)O | 136.5 | OCHEM
CSc1ccc(C(=O)C(C)C)cc1 | 42.5 | eChemPortal
CC(C)n1c(/C=C/[C@@H](O)C[C@@H](O)CC(=O)OC(C)(C)C)c(-c2ccc(F)cc2)c2ccccc21 (racemic) | 141.5 | eChemPortal
Nc1ccccc1C(=O)NCCc1ccccc1 | 111 | OCHEM
CCOc1ccc(-c2nnc(N)o2)cc1 | 239 | OCHEM
Nn1c(-c2ccco2)n[nH]c1=S | 208 | OCHEM
CCN(CC)C(=O)c1cccc(N)c1 | 82 | OCHEM
O=C1COc2cc(C(=O)O)ccc2N1 | 322 | OCHEM
Nc1cc(F)ccc1C(F)(F)F | 30.5 | OCHEM
CCOC(=O)c1c(C)oc(N)c1C#N | 99 | OCHEM
CC1(C)C2=CCCC(C)(C)[C@]23CC[C@H]1C3 | -10.64 | eChemPortal
COC(=O)n1c(-c2cscn2)nc2ccccc21 | 124 | OCHEM
O=C(O)c1ccccc1NCCO | 143 | OCHEM
O=S(=O)([O-])c1cc(O)c2ccc3c(S(=O)(=O)[O-])cc(S(=O)(=O)[O-])c4ccc1c2c34.[Na+].[Na+].[Na+] | 240 | eChemPortal
CCCOc1ccc(C=O)cc1OCC | 37 | OCHEM
COc1ccc(N2CC(C(=O)O)CC2=O)cc1 (centres undefined) | 172 | OCHEM
COCCOCCOCCNC(C)(C)C | -44 | eChemPortal
Nc1c(S(=O)(=O)[O-])cc(Nc2ccc(S(=O)(=O)CCOS(=O)(=O)[O-])cc2)c2c1C(=O)c1ccccc1C2=O.[Na+].[Na+] | 320 | eChemPortal
Cc1nn(-c2ccccc2)c(N)c1-c1ccccc1 | 83 | OCHEM
Cc1ccc(C(=O)C2CC2)cc1 | 48 | OCHEM
COC(=O)CCCCCNC(N)=S | 85 | OCHEM
Clc1cccc(-c2cc(Cl)c(Cl)c(Cl)c2Cl)c1Cl | 101 | QSARDB
COC(=O)c1c(Cl)c(Cl)c(C(=O)SC)c(Cl)c1Cl | 161.5 | PubChem
O=C(O)c1ccc(Nc2ccccc2)c([N+](=O)[O-])c1 | 251 | OCHEM
Cc1ccc(S(=O)(=O)C(C)(C)C(=O)c2ccc(Sc3ccc(C(=O)c4ccccc4)cc3)cc2)cc1 | 115.3 | eChemPortal
COc1ccc(OCC2CO2)cc1 (centres undefined) | 46.5 | OCHEM
CCCCCCCCC(C)C#N (centres undefined) | -40.9 | eChemPortal
CCN(CC)C(COC(=O)c1ccc(N)cc1)CC(C)C.CS(=O)(=O)O (centres undefined) | 158 | OCHEM
O=C(O)c1cccc(N2C(=O)CCC2=O)c1 | 238 | OCHEM
CCCc1ccc(-c2csc(N)n2)cc1 | 116 | OCHEM
CC(=O)c1ccc2[nH]c(=O)[nH]c2c1 | 265 | OCHEM
Clc1ccc(Oc2cc(Cl)c(Cl)c(Cl)c2Cl)c(Cl)c1Cl | 104 | QSARDB
CC(C)(C)C(=O)Nc1ccc2nn(C3CCCC3)nc2c1 | 136 | OCHEM
NS(=O)(=O)c1ccc(S(=O)(=O)CCCO)s1 | 107 | OCHEM

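The OPERA project collected these measurements from public sources as training and test data for property models. The files give a single number for a compound and property, which may rest on several reports. Method, purity and exact conditions of the single measurements are not given. Where a salt, mixture or single isomer is drawn, the source does not say that exactly this form was tested. Some upstream entries may be estimates or bounds without being marked so.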